Assay: In vivo tolerability (body weight, survival, organ H&E)
Conditions: 6d and OXA 5 mg kg^−1, GLA 10 mg kg^−1, i.p. every two days; OXA after nine days
Procedure: All mice were 6–8 weeks old males and procured from Hangzhou Medical College, located in Hangzhou, China. […] 2 × 10^6 Hepa1‐6 cells in 100 µL DMEM were subcutaneously seeded in underarms of C57BL/6 mice. […] Meanwhile, the mice weights and tumor volume were recorded, and the calculation formula of tumor volume was Volume = Width^2 × Length/2. After 13 days, all mice were sacrificed for collection of tumors, hearts, livers, spleens, lungs and kidneys. Collagenase IV (1 mg mL^−1) and DNase I (1 µg mL^−1) were applied to digest a part of the tumor tissue into cell suspension, and lysis buffer was used to remove red blood cells. The prepared cells above were stained with antibodies (anti‐CD3e‐FITC, and anti‐CD8a‐PE; anti‐CD11c‐APC, anti‐CD80‐PE, and anti‐CD86‐FITC; anti‐CD45‐Percp, anti‐CD11b‐APC, and anti‐Ly‐6G/Ly‐6C(Gr‐1)‐FITC; anti‐CD11b‐APC, anti‐CD206‐PE, and CD86‐FITC). CD3^+CD8^+ T cells, CD80^+CD86^+ DCs, CD11b^+Gr‐1^+ MDSCs, CD206^−CD86^+ M1‐type macrophages and CD206^+CD86^− M2‐type macrophages were analyzed by flow cytometry. Then, another part of tumor tissues were fixed with 4% paraformaldehyde, embedded in paraffin, cut into slices and stained with antibodies for immunofluorescence and immunohistochemistry analysis. H&E stain assays were applied for all tissue samples.

O=C1[O][Pt]2([NH][C@@H]3CCCC[C@H]3[NH]2)[O]C1=O [OXA, oxaliplatin]
effect on mice body weight: decrease in body weight
